Columns and labels:
[1] = Thermodynamic (aqueous) solubility, 24 hours at 25° C., HPLC quantitation; assay type: physicochemical
Procedure: Aqueous solubility was determined by suspending sufficient amount of compound in 0.5 ml media for a maximum anticipated concentration of ca. 10 mg/ml. The suspension was equilibrated at 25° C., on a Heidolph plate shaker set to 750 rpm for 24 hours. The pH of the sample solutions was periodically checked and, if required, adjusted with 0.2M NaOH to ensure that the desired pH was maintained (±0.05) throughout. The pH of the saturated solution after this time was measured and the suspension filtered through a glass fibre C filter (particle retention 1.2 μm) and diluted appropriately.
Quantitation was by HPLC with reference to a standard solution of approximately 0.15 mg/ml in 1:1 MeCN/H2O. Different volumes of the standard, diluted and undiluted sample solutions were injected.
Different volumes of the standard, diluted and undiluted sample solutions were injected. The solubility was calculated using the peak areas determined by integration of the peak found at the same retention time as the principal peak in the standard injection.
Analysis was performed on an Agilent HP1100 series system equipped with a diode array detector and using ChemStation software.

[2] = Intrinsic dissolution rate (IDR), Sirius inForm, compressed discs; assay type: physicochemical; settings: 37° C., pH 5.0 media, 1 hour, 6 mm disc
Procedure: IDR Method Ca. 40 mg material was compressed under 100 kg for 2 minutes to form non-disintegrating discs. The discs were then plugged with a bung so that only one surface was exposed to the media during analysis, and transferred to the dissolution apparatus (Sirius inForm). The volume of the assay was 40 ml and a stir speed of 225 rpm was used. Analysis was performed at 37° C. in pH 5.0 media for 1 hour with UV spectra collected every 30 seconds, using a 20 mm path length probe.

[3] = pH 4.0 media (42.4 ml 0.1 M acetic acid mixed with 7.6 ml 0.1 M sodium acetate)
[4] = Media DI Water, pH 7.8, final pH 5.24-5.42

## Pinoxaden:Dicamba (1:1) Molecular Complex [Example 5]
[1]; [3]
  Thermodynamic solubility of pinoxaden component: 310 µg/mL
  Thermodynamic solubility of second component: >5300 µg/mL

## Pinoxaden:Fluroxypyr (1:1) Molecular Complex [Example 2]
[2]
  IDR of pinoxaden component: 64.5 μg/min/cm^2
  IDR of second component: 104.5 μg/min/cm^2
[1]; Media DI Water, final pH 3.97-4.10
  Thermodynamic solubility of pinoxaden component: ca. 0.01 mg/ml
[1]; Media DI Water, final pH 4.04-4.10
  Thermodynamic solubility of second component: 250 µg/mL

## Pinoxaden:MCPA (1:1) Molecular Complex [Example 4]
[1]; [4]
  Thermodynamic solubility of pinoxaden component: 200 µg/mL
  Thermodynamic solubility of second component: 110 µg/mL

Reference: patent US20220369641A1, “MOLECULAR COMPLEXES” (priority 2019, published 2022)
